The results in this text go back to paper PMC13600255 (Journal of the American Chemical Society, 2025).

Chains of the proteins cited; added tags and fusions are not shown.
UniProt P31652, whole entry: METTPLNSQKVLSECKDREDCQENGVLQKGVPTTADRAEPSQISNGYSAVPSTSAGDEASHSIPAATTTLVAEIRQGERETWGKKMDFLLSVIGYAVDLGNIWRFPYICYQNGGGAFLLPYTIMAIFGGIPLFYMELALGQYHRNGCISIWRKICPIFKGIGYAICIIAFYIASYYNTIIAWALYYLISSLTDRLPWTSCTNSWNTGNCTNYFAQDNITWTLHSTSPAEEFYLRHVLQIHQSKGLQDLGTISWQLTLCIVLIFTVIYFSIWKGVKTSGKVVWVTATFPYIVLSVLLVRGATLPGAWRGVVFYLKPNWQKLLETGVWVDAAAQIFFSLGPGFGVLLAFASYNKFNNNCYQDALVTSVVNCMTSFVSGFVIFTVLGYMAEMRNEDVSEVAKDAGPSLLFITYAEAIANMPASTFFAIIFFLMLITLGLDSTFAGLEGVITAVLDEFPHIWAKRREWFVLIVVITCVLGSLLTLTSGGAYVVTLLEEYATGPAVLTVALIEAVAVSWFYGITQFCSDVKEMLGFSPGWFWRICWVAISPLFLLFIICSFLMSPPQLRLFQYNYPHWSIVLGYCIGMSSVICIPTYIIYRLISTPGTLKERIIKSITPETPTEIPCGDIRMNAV

The assay deals with rat SERT (rSERT) (Rattus norvegicus, UniProt P31652). Put plainly: [3H]5-HT uptake inhibition in rat brain synaptosomes. In kind it is biochemical.

Consider `COC(=O)[C@H]1[C@@H](OC(=O)c2ccccc2)C[C@@H]2CC[C@H]1N2C` [cocaine, reference compound], for which the IC50 by setting is: (Uptake Inhibition at SERT IC50, [3H]5-HT (rSERT)) 296 nM; ([3H]5-HT Uptake Inhibition IC50 ± SD, SERT, n = 3) 296 ± 29.5 nM.

As a reminder, the IC50 is the concentration at which inhibition is half-maximal. High values mean weaker potency in that assay, low ones greater potency in that assay.
